Antibody variant affinities, Ab-14 light chain, assay 1

Binding partner: SARS-CoV-2 spike HR2 peptide, sequence PDVDLGDISGINAS.

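AAYL50 was designed without a model: most single CDR substitutions and a random sample of double and triple ones. AlphaSeq pools MATa yeast showing the antibodies with MATalpha yeast showing the peptide. Mating (16 h, 30 °C) was followed by selection of diploids and sequencing of their barcodes. Each replicate has its own calibration line, from reference interactions of the BCL2 family. The assay was run in three technical replicates.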

The variants keep the heavy chain, the linker and the frameworks of Ab-14 (scFv order VH, a 15-residue (Gly4Ser)3 linker, VL).
VH: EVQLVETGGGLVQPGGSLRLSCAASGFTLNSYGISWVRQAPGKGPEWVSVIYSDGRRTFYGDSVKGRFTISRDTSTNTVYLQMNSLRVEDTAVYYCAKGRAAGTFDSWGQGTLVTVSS
VL: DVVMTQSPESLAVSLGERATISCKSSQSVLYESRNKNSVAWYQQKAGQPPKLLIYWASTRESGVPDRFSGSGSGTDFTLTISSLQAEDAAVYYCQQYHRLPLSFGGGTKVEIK

Each variant is given by its three light chain CDRs, as the data file delimits them; those of the parent are KSSQSVLYESRNKNSVA, WASTRES, QQYHRLPLS. Each Kd is an estimate from the mating assay, the geometric mean of the replicates in which the pair was seen; lower is stronger. "no signal" means that the variant was in the library but no mating with the target was seen in any replicate; the authors take this as a sign of poor binding, and no number exists. The list is sorted by this average, lowest first, undetected variants last. Background: pairings of library AAYL50 with three empty control strains gave a value in 18% of cases (median 15 µM, 5th percentile 970 nM). Values in that range, when seen in few replicates, are hard to tell from nonspecific mating.

CDR-L1	CDR-L2	CDR-L3	apparent Kd	detected
KSSQMDLYESRNKNSVA	WASTRES	QNYHRLPLS	2.0 nM	3 of 3
KSSQSVLYESTNKNSVA	WASTREG	QQYHRLPLH	6.4 nM	3 of 3
KSSQSVLYESHNKNSVA	WASTRIS	QQYHRLPIS	6.7 nM	3 of 3
KMSQSVLLESRNKNSVA	WAVTRES	QQYHRLPLS	8.2 nM	3 of 3
KSSQSVLYESRNKNSVA	WASTRES	QDYHRNPLS	9.4 nM	3 of 3
KSQQSELYESRNGNSVA	WASTRES	QQYHRLPLS	10 nM	3 of 3
KSSQSVSYESRNKNSVA	WASYRES	QQYHRLPLS	10 nM	3 of 3
KSSQSVLYESHNKNSVA	WASTRES	QQLHRLCLS	11 nM	3 of 3
MASQSVLYESRNKNSVA	WASTRES	QQYHRLPLS	13 nM	3 of 3
KSKRSVGYESRNKNSVA	WASTRES	QQYHRLPLS	20 nM	3 of 3
KSSQSVLYGSRNRNSVA	WASTRES	QQYHRLPLS	23 nM	3 of 3
KSSQSVIYGSRNKNSVA	WASTREC	QQYHRLPLS	29 nM	3 of 3
KSSQSVLYESMNKQSVA	WASTRES	QQYHVLPLS	51 nM	3 of 3
KSSQAVLYEHRNKNSVA	WASTRVS	QQYHRLPLS	110 nM	3 of 3
KSSVSVLYEFRNKNSVA	WASTRES	QQYLRLPLS	130 nM	3 of 3
YSSQPVLYESRNKNSVA	WASTREE	QQYHRLPLS	320 nM	3 of 3
KSSQIVLYEQRNKNSVA	WASTRES	QQYHVLPLS	420 nM	3 of 3
KSSQSVMYESRNKNSVA	WASTRLS	QQYHRLPLD	630 nM	3 of 3
KSSLSVLYESRNKNSVA	WGSTRES	QPYHRLPLS	850 nM	1 of 3
KSSQSVLRESRNKNSVA	WMSTRES	QQYHRLPLS	1.0 µM	3 of 3
KSSLSVLYESMNKNSVV	WASTRES	QQYHRLPLS	1.3 µM	1 of 3
KSSQSVLYEKRNKNSVA	WALTRES	QQTHRLPLS	2.1 µM	1 of 3
KSIQSVLYESRNINSVA	WASTRES	QQYHRLPLR	2.3 µM	2 of 3
KSSQSVLGVSRNKNSVD	WASTRES	QQYHRLPLS	2.6 µM	2 of 3
KSSQSVLYESRNKNSDA	WASTREE	QQYHRLPLS	3.5 µM	2 of 3

Second part, the sequence after the result:

apparent Kd	detected	CDR-L1	CDR-L2	CDR-L3
5.3 µM	1 of 3	KSSQSVLYESRNKNSVA	WAFTRES	QQYHLVPLS
5.8 µM	1 of 3	KSPQSVLYESRNKNSVA	WASTREG	QQPHRLPLS
8.1 µM	1 of 3	KSSQSVLYEKRNKNSVA	WASTPEG	QQYHRLPLS
9.8 µM	1 of 3	KSWQSVLYESRNKNSVA	WASTRES	QQYHRLMES
11 µM	3 of 3	KSSQSVLWESRNKNCVA	WASTRES	QFYHRLPLS
11 µM	1 of 3	KSSQSVLYESRNKNSVA	CASTRES	QQTHRLPLS
17 µM	3 of 3	KSSQSPLYEARNKNSVA	WASTRES	QQYHRLPAS
18 µM	1 of 3	KSSFSVLYESMNKNSVA	WASTRES	QQYPRLPLS
240 µM	3 of 3	KSSQSVLYESRKKNSKA	WASTRES	QQYHRLLLS
300 µM	2 of 3	KSSQSVLYESRNKNSNA	WASTDES	QQYHSLPLS
1.1 mM	1 of 3	KSSQSVLYEARNKNSSA	WASTRES	QQYHRLYLS
no signal	0 of 3	KSSQSVLYESCNKNSVA	WASTRES	QQYHRLRLQ
no signal	0 of 3	KSSQQVLYESRNKNSVA	WWSTRGS	QQYHRLPLS
no signal	0 of 3	KSSQSVLYESRNKNSDA	WASTRES	QQYHPLPLS
no signal	0 of 3	KSSSSVLYESRNKNYVA	WASTRES	QQYHRLPHS
no signal	0 of 3	KSSISVLYESRNKNSVA	WASGRES	QNYHRLPLS
no signal	0 of 3	KSSQSVLYESRNKNSVA	WIIARES	QQYHRLPLS
no signal	0 of 3	KSSQSVLYESRNKMSVA	WASTEEP	QQYHRLPLS
no signal	0 of 3	KSHQSVLYESRNKNSVA	IASTRES	QQYHGLPLS
no signal	0 of 3	KSFQSVLYESRNKNFVA	WASTRDS	QQYHRLPLS
no signal	0 of 3	KSSQSVLYESRNKNSVA	YASTRES	IQYHELPLS
no signal	0 of 3	KSSQSVLYESRNKNSVV	RASRRES	QQYHRLPLS
no signal	0 of 3	KSVQMVLYESRNKNSVA	WASWRES	QQYHRLPLS
no signal	0 of 3	KYSQSVLYESRNKNSGA	WASTRES	QNYHRLPLS
no signal	0 of 3	KSSQSVLYISRNKRSCA	WASTRES	QQYHRLPLS

The first 5 entries again:

CDR-L1,CDR-L2,CDR-L3,apparent Kd,detected
KSSQMDLYESRNKNSVA,WASTRES,QNYHRLPLS,2.0 nM,3 of 3
KSSQSVLYESTNKNSVA,WASTREG,QQYHRLPLH,6.4 nM,3 of 3
KSSQSVLYESHNKNSVA,WASTRIS,QQYHRLPIS,6.7 nM,3 of 3
KMSQSVLLESRNKNSVA,WAVTRES,QQYHRLPLS,8.2 nM,3 of 3
KSSQSVLYESRNKNSVA,WASTRES,QDYHRNPLS,9.4 nM,3 of 3

Source: Engelhart et al. 2022 (doi:10.1038/s41597-022-01779-4), MIT Lincoln Laboratory and A-Alpha Bio; data file from the FLAb repository.